This is an account of results in patent publication US8143374B2, “Polypeptide derivatives of parathyroid hormone (PTH)” (The General Hospital Corporation, priority 2006, dated 2012).

Data set [1] in a line: Circular dichroism spectroscopy, helical residues per peptide chain. The class given is physicochemical. The settings on record: hPTH(1-31)NH2 analogs; calculated from [θ]222. The procedure: Circular Dichroism—CD spectra were obtained on a JASCO J-600 spectropolarimeter at 20° C. Four spectra were averaged and the data smoothed by the JASCO software. The instrument was calibrated with ammonium (+)-10-camphorsulfonate. Peptide concentrations were verified from the absorption at 280 nm, using an extinction coefficient of 5700 M^−1 for the single tryptophan. Data are expressed as the number of helical residues per peptide chain, as calculated from −[θ]222×30/28,000, where [θ]222 is the mean residue elipticity ([θ]) at 222 nm, as was described previously (Barbier, J. R., et al. (2005) J Biol Chem. 280:23771-23777).

The target of a further data set is T1, intact human PTHR (Homo sapiens, UniProt Q03431).
T1 sequence (Q03431 27-593): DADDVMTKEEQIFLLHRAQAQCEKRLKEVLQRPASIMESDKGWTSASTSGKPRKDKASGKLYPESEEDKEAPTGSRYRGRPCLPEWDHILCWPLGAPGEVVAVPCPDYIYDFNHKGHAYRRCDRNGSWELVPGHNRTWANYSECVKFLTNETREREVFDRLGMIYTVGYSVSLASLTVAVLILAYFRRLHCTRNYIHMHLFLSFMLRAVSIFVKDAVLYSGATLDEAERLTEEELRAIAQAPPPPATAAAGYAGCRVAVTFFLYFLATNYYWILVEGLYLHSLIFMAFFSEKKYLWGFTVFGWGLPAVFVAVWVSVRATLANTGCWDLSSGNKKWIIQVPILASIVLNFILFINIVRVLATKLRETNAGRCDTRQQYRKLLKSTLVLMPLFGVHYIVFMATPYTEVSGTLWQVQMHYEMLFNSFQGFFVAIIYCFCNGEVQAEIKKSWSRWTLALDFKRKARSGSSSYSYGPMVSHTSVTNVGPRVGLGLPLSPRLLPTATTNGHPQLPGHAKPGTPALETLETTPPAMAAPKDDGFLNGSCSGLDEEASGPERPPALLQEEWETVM
As to the kind of experiment: Stimulation of inositol phosphate production in transfected COS-7 cells. The note with it: 1×10^−6 M; COS-7 cells transfected with the PTHR. It is filed as cell-based. The procedure: Stimulation of intracellular cAMP and inositol phosphate—The capacities of the ligands to stimulate adenylyl cyclase activity were assessed in intact ROS 17/2.8 cells, as described (Shimizu, M., (2001) Endocrinology 142:3068-3074). In brief, cells in 24-well plates were incubated in binding buffer containing the phosphodiesterase inhibitor, IBMX, with or without a peptide ligand (3×10^−9 to 1×10^−5 M) for 30 minutes at room temperature. The medium was removed and the cells were lysed by adding 50 mM HCl and freezing the plate on dry ice. The cAMP in the thawed lysate was then quantified by radioimmuno assay. The stimulation of production of inositol phosphates (IP1+IP2+IP3) was assessed in COS-7 cells transfected with the intact human PTHR, as described previously (Shimizu, M., (2001) Endocrinology 142:3068-3074). In brief, intact transfected COS-7 cells in 24-well plates were labeled with ^3H-myo-inositol (specific activity: 25 Ci/mmol, Perkin Elmer/NEN Life Science Products, Boston, Mass.) for 16 hours, treated for 30 minutes with ligand in the presence of LiCl2 (30 mM), treated with ice cold trichloroacetic acid (5%) for two hours; the acid lysates were then ether extracted, separated by ion-exchange chromatography, and eluted ^3H-inositol phosphates were quantified by liquid scintillation counting. […]

As to `CC[C@H](C)[C@H](NC(=O)[C@H](CCC(=O)O)NC(=O)[C@H](CO)NC(=O)[C@@H](NC(=O)[C@@H](N)CO)C(C)C)C(=O)N[C@@H](CCC(N)=O)C(=O)N[C@@H](CC(C)C)C(=O)N[C@@H](CCSC)C(=O)N[C@@H](Cc1c[nH]cn1)C(=O)N[C@@H](CC(N)=O)C(=O)N[C@@H](CC(C)C)C(=O)NCC(=O)N[C@@H](CCCCN)C(=O)N[C@@H](Cc1c[nH]cn1)C(=O)N[C@@H](CC(C)C)C(=O)N[C@@H](CC(N)=O)C(=O)N[C@@H](CO)C(=O)N[C@@H](CCSC)C(=O)N[C@@H](CCC(=O)O)C(=O)N[C@@H](CCCNC(=N)N)C(=O)N[C@H](C(=O)N[C@@H](CCC(=O)O)C(=O)N[C@@H](Cc1c[nH]c2ccccc12)C(=O)N[C@@H](CC(C)C)C(=O)N[C@@H](CCCNC(=N)N)C(=O)N[C@@H](CCCCN)C(=O)N[C@@H](CCCCN)C(=O)N[C@@H](CC(C)C)C(=O)N[C@@H](CCC(N)=O)C(=O)N[C@@H](CC(=O)O)C(=O)N[C@H](C(N)=O)C(C)C)C(C)C` [PTH(1-31)NH2, reference compound], in data set [1], the CD helical residues is listed as 8. At intact human PTHR, the “increase in total IP levels” value is “four-fold increase”.
